Molecular target: Sodium-dependent dopamine transporter (Rattus norvegicus, UniProt P23977)
Experiment: Ability to inhibit high affinity uptake of [3H]DA at Dopamine transporter (DAT) using rat brain striatum
Format: tissue-based
Method in brief: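 Rat synaptosomal (P2) uptake: striatum for DAT, midbrain for SERT, parietal/occipital cortex for NET, in modified KRH pH 7.4 with nialamide. Drug preincubated 30 min at 4 °C, then 15 min at 37 °C. [3H]amine final ~5 nM (DA, 5-HT) or 9 nM (NE), 5 min uptake, stopped with cold Na-free buffer and filtered. Background from 0 °C tubes. IC50 converted to Ki by Cheng–Prusoff. Mean ± SE, ≥3 experiments.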

The chains behind the UniProt entries cited, without tags or fusion partners.
UniProt P23977, whole entry: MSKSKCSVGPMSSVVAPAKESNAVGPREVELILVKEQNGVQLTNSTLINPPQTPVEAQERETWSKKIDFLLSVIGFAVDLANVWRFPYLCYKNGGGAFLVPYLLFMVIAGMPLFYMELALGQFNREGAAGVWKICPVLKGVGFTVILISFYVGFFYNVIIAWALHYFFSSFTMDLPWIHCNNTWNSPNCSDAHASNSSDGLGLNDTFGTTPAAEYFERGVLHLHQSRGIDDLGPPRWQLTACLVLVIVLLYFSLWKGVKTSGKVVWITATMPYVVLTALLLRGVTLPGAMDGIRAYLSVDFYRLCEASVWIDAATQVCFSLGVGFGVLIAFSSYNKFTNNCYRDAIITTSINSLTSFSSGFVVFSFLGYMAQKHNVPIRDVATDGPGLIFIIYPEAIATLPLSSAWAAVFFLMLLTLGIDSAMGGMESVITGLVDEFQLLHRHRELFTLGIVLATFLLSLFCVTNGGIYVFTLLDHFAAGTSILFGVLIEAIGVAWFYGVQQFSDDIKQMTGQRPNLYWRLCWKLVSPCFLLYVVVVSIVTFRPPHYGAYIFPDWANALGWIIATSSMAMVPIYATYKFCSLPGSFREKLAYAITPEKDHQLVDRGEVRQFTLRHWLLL

Compound	Ki [µM]
CN1CC[C@H](c2ccc(Cl)cc2)[C@@H](C(=O)O)C1	173
CNC(=O)C[C@H]1CN(C)CC[C@@H]1c1ccc(Cl)cc1	0.926

Reference: ChEMBL document CHEMBL1149196 (J Med Chem, 2004)
